The list shows a part of the results, in another mix than the full data. Results filed as inconclusive are left out. The source made the active and inactive calls. The call rests on the fitted dose curve; in most records, active means well fitted inhibition curve with a large enough effect (not every such curve was filed as active); inconclusive means small, poorly fitted or top-dose-only effect, or another doubt; inactive means no such curve, though single readings can be large or run the other way.
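Further: 0% = wells with enzyme and -100% = buffer wells without enzyme; nearly all actives have a fitted effect of over 50% in size.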

Amino acid sequences for entries named in this document (tags omitted). Residues count along the entry.
UniProt B2RXH2, 1-337 limits assumed: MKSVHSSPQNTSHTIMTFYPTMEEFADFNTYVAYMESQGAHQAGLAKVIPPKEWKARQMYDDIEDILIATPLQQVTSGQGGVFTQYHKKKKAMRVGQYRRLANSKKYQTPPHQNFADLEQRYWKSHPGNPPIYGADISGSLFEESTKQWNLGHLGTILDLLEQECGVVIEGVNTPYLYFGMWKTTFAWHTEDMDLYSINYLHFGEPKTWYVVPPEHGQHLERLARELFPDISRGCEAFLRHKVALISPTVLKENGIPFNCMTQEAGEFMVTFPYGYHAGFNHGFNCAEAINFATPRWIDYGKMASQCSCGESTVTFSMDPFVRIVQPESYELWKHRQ

This experiment concerns the target Lysine-specific demethylase 4E (Homo sapiens) (UniProt B2RXH2). Kind of experiment: qHTS Assay for Inhibitors of Human Jumonji Domain Containing 2E (JMJD2E). As to conditions: JMJD2E catalytic domain, FDH-coupled NADH fluorescence (FDH is formaldehyde dehydrogenase); at 57.1 µM (top of the series).
With `CN(CCCl)CCCl`, the activity change, negative = inhibition is inactive: -4.23%.

The record behind these values is PubChem BioAssay AID2147 (National Center for Advancing Translational Sciences (NCATS), 2009).
